Compound activity from PubChem.
IL-2 act = IL-2 activation. IL-2 activation reporter assay, cell-based qHTS; stimulated with anti-CD3/CD4/CD28 beads; in transgenic mouse T cells. activation, % (series mostly up to about 46 µM). hit rate 0.065% among 360,000; in the data active means activation above about 50%; inconclusive means mostly about 30% to 49%; further: 0% is about no effect
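Readout is EGFP and DsRed signal by fluorescent plate cytometry after 18 h at 37 degrees C. Transgenic mouse T cells (750/well) received compound for 60 min before bead stimulation (anti-CD3, anti-CD4, anti-CD28); memory T cells served as non-tolerant control.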
AT treatment = potential ataxia-telangiectasia treatment; F2112 A-T fibroblasts, KAP-1 phosphorylation AlphaLISA; neocarzinostatin DNA damage 30 min before lysis; Potency, µM (doses to about 57.5 µM), for inactives: at the top dose activation, actives largely listed as activators; hit rate 0.19% among 320,000; further: potency means the concentration at half of the fitted maximal effect; % of control where 0% means no effect; nearly all actives have a fitted effect of over 45% in size
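ATM-like activity read as KAP-1 phosphorylation via AlphaLISA donor/acceptor antibody pairs after lysis and 6 hr at 25C. Cells were ATM-null patient fibroblasts (F2112, hTERT), dosed 60 min, then exposed to the DSB inducer NCS for 30 min.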
Rango release inh = inhibitors of RanGTP-induced Rango-importin beta complex dissociation; O95149+P62826; Biochemical FRET Rango-importin beta, RanGTP-induced dissociation; Potency, µM (top dose mostly 46.1 µM), for inactives: at the top dose activity change, negative = inhibition; hit rate 0.071% among 340,000; AID 540253; calls by dose curve; further: potency means the concentration at half of the fitted maximal effect; % of control where 0% means no effect; nearly all actives have a fitted effect of over 45% in size
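Compounds preincubate 5 min with complex of recombinant Rango and importin beta in PBS with 1 mM DTT. Ran (0.6 uM) loaded with 2 mM GTP plus 0.2 uM RCC1 starts dissociation; FRET is recorded 45 min later.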
Rango complex inh = inhibitors of Rango-importin beta complex formation. AID 540263. Potency, µM (doses to about 92.2 µM), for the others: at the top dose inhibition of complex formation. hit rate 0.031% among 340,000. Rango CFP/YFP FRET sensor + importin beta, 45 min; calls by dose curve;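 further: potency means the concentration at half of the fitted maximal effect; 0% = DMSO wells and 100% = buffer wells lacking importin beta; nearly all actives have a fitted effect of over 15% in size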
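Inhibition scored from the CFP 486 nm/YFP 530 nm FRET ratio 45 min after adding 0.125 microM importin beta to 50 nM Rango biosensor preincubated 5 min with compound (room temperature, PBS with DTT, Tween-20, BSA). No-importin wells as positive control.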
PKM2 act = increases activity of human pyruvate kinase M2; P14618; purified PKM2, Kinase-Glo ATP luminescence, activation; response scale: 0% is enzyme alone, no compound; Potency, µM (series often up to 57.5 µM), for the others: top-dose activation, most hits filed as activators; hit rate 0.34% among 260,000; AID 1631; further: potency means the concentration at half of the fitted maximal effect; on the % scale 0 is the no-effect control and ±100 the full control effect; nearly all actives have a fitted effect of over 55% in size
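Kinase-Glo luminescence reports ATP generated from ADP (0.1 mM) and PEP (0.5 mM) by purified hPK-M2 after 1 h at room temperature, pH 7.2 imidazole buffer; intermediate enzyme activity allows detecting inhibitors and activators.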
An asterisk follows results filed as active. Rows were chosen to be rich in hits. Some 0.59% of all compounds tested hit in one or more screens of this group. Unless noted, the call rests on the fitted dose curve; in most records, active means well fitted activation curve with a large enough effect; inconclusive means small, poorly fitted or top-dose-only effect; inactive means no such curve, though single readings can be large or run the other way.

CCCCCCc1cc2cc(S(=O)(=O)c3ccc(F)c(Cl)c3)c(=O)oc2cc1O was read as IL-2 act 0, AT treatment 28µM*, Rango release inh inconclusive, Rango complex inh inconclusive and PKM2 act -13%.
CCCCCCc1cc2cc(C(=O)OCC)c(=O)oc2cc1O was read as IL-2 act -1, AT treatment 1%, Rango release inh inconclusive, Rango complex inh inconclusive and PKM2 act -8%.
Cc1cc(NC(=O)/C(C#N)=C/c2ccc(-c3cccc(C(F)(F)F)c3)o2)n(-c2ccccc2)n1 was read as IL-2 act 0, AT treatment 1%, Rango release inh -22%, Rango complex inh inconclusive and PKM2 act -1%.
For Cc1cc(NC(=O)/C(C#N)=C/c2ccc(-c3ccc(SC(F)F)cc3)o2)n(-c2ccccc2)n1 the results were IL-2 act 100*, AT treatment 5%, Rango release inh inconclusive, Rango complex inh inconclusive and PKM2 act -14%.
Screening N#CC1=C(N)Oc2cc(O)ccc2C1c1cccnc1 (stereo unspecified) returned IL-2 act -1, AT treatment 2%, Rango release inh inconclusive, Rango complex inh inconclusive and PKM2 act 9%.
N#CC1=C(N)Oc2cc(O)ccc2C1c1ccncc1 (stereo unspecified) was read as IL-2 act 1, AT treatment -11%, Rango release inh inconclusive, Rango complex inh inconclusive and PKM2 act 20µM*.
Screening CC(=O)N(/N=C1\Sc2ccccc2C1=O)c1ccccc1C returned IL-2 act -4, AT treatment -7%, Rango release inh 8.2µM*, Rango complex inh inconclusive and PKM2 act -2%.
Screening CC(=O)N(/N=C1\Sc2ccccc2C1=O)c1ccc(C)cc1C returned IL-2 act -3, AT treatment -9%, Rango release inh -4%, Rango complex inh 0% and PKM2 act -5%.
Screening C=C(C)C(=O)Oc1ccc(N2C(=O)CCC2=O)cc1 returned IL-2 act 0, AT treatment 22µM*, Rango release inh -3%, Rango complex inh 0% and PKM2 act -14%.
`CC(=O)Oc1ccc(N2C(=O)CCC2=O)cc1` gave IL-2 act -3, AT treatment 4%, Rango release inh 6%, Rango complex inh 1% and PKM2 act -6%.

Some of these compounds in order of length of the SMILES, ascending.
Screening C=C(C)C(=O)Oc1ccc(N2C(=O)CCC2=O)cc1 returned IL-2 act 0, AT treatment 22µM*, Rango release inh -3%, Rango complex inh 0% and PKM2 act -14%.
CCCCCCc1cc2cc(S(=O)(=O)c3ccc(F)c(Cl)c3)c(=O)oc2cc1O was read as IL-2 act 0, AT treatment 28µM*, Rango release inh inconclusive, Rango complex inh inconclusive and PKM2 act -13%.
Cc1cc(NC(=O)/C(C#N)=C/c2ccc(-c3cccc(C(F)(F)F)c3)o2)n(-c2ccccc2)n1 was read as IL-2 act 0, AT treatment 1%, Rango release inh -22%, Rango complex inh inconclusive and PKM2 act -1%.

New compounds follow.
COc1ccc(-n2c(C)c(C)c3c(NCCN(C)C)ncnc32)cc1 was read as IL-2 act 5, AT treatment 7.1µM*, Rango release inh 1% and Rango complex inh -3%.
For CCc1nc2ccc(C(=O)NCCCn3ccnc3)cn2c1N(C)C(=O)c1cccc(OC)c1 the results were IL-2 act 0.
Cn1c(=O)n(C)c2cc(S(=O)(=O)Nc3cc(Cl)ccc3O)ccc21 was read as IL-2 act 4, AT treatment 2%, Rango release inh 11%, Rango complex inh 1% and PKM2 act 13µM*.
`Cn1c(=O)n(C)c2cc(NS(=O)(=O)c3ccccc3)ccc21` gave IL-2 act -2, AT treatment 1%, Rango release inh -8%, Rango complex inh 0% and PKM2 act 18%.
Screening Cn1c(=O)n(C)c2cc(S(=O)(=O)Nc3ccccc3O)ccc21 returned IL-2 act 1, AT treatment 1%, Rango release inh -6%, Rango complex inh 0% and PKM2 act inconclusive.
For Cn1c(=O)n(C)c2cc(S(=O)(=O)Nc3ccccc3)ccc21 the results were IL-2 act 0, AT treatment 0%, Rango release inh 1%, Rango complex inh 5% and PKM2 act 4µM*.
`Cc1ccc(NS(=O)(=O)c2ccc3c(c2)n(C)c(=O)n3C)cc1C` gave IL-2 act -1, AT treatment -7%, Rango release inh 12%, Rango complex inh 2% and PKM2 act 1.6µM*.
For Cc1ccc(NC(=S)NC(=O)C2CCCCC2)c(Br)c1 the results were IL-2 act 0, AT treatment -3%, Rango release inh -10% and Rango complex inh -7%.
For COCCCn1c(SCC(=O)N2CCOCC2)nnc1-c1ccco1 the results were IL-2 act 0, AT treatment 3%, Rango release inh 0% and Rango complex inh inconclusive.
CC(O)CN(CC(C)O)c1ccc2c(c1)Cc1cc([N+](=O)[O-])ccc1-2 (stereo unspecified) was read as IL-2 act -3, Rango release inh inconclusive and Rango complex inh 18µM*.

Among those listed so far, 2 have an aryl thioether with sulfur outside any ring:
For Cc1cc(NC(=O)/C(C#N)=C/c2ccc(-c3ccc(SC(F)F)cc3)o2)n(-c2ccccc2)n1 the results were IL-2 act 100*, AT treatment 5%, Rango release inh inconclusive, Rango complex inh inconclusive and PKM2 act -14%.
For COCCCn1c(SCC(=O)N2CCOCC2)nnc1-c1ccco1 the results were IL-2 act 0, AT treatment 3%, Rango release inh 0% and Rango complex inh inconclusive.

Continuation.
Screening COc1ccc(CN(CCN(C)C)c2ccccn2)cc1 returned IL-2 act 0, AT treatment -13%, Rango release inh 17%, Rango complex inh inconclusive and PKM2 act 1%.
CCCCCCCCCCCCCCCC[N+](C)(C)CCN(Cc1ccc(OC)cc1)c1ncccn1 was read as IL-2 act -1, AT treatment 4%, Rango release inh 6% and Rango complex inh 65µM*.
`CCc1ccc2c(c1)C(c1ccc([N+](=O)[O-])cc1)=NNC(c1ccc(F)cc1)=N2` gave IL-2 act -3, AT treatment 0%, Rango release inh 12µM*, Rango complex inh inconclusive and PKM2 act -1%.
CCc1nc2c(OCC3COc4ccccc4O3)cccn2c1N(C)C(=O)c1ccc(OC)cc1 (stereo unspecified) was read as IL-2 act 0.
`O=C(O)c1ccc(N2C(=O)CC(SC(=NCc3ccc4c(c3)OCO4)Nc3ccccc3)C2=O)cc1` (stereo unspecified) gave IL-2 act 1, AT treatment 0%, Rango release inh -17%, Rango complex inh -4% and PKM2 act -2%.
For N/C(=N\N=C\c1ccc2c(c1)OCO2)SC1CC(=O)N(c2ccc(C(=O)O)cc2)C1=O (stereo unspecified) the results were IL-2 act 0, AT treatment 2%, Rango release inh -3%, Rango complex inh -5% and PKM2 act 35µM*.
Screening NC(=O)COc1ccccc1/C=C1/SC(=O)N(CC(=O)N2CCc3ccccc3C2)C1=O returned IL-2 act 0, AT treatment 5%, Rango release inh 4%, Rango complex inh 1% and PKM2 act 20µM*.
Cn1c(SCC(=O)Nc2ccc(Cl)cn2)nnc1C1CC1 was read as IL-2 act 0, AT treatment -2%, Rango release inh 14%, Rango complex inh 0% and PKM2 act 0%.
Cn1c(SCC(=O)c2ccccc2F)nnc1C1CC1 was read as IL-2 act -3, AT treatment 5%, Rango release inh -5%, Rango complex inh 1% and PKM2 act 32µM*.
